Consider three compounds from US6872733B2, “Benzimidazolone compounds” (dated 2005).

Protein sequences, listed by entry. Tags and fused reporters are not part of them. Lines headed by an entry give the natural chain unless they say otherwise; changes in a name come on top.
UniProt P41146: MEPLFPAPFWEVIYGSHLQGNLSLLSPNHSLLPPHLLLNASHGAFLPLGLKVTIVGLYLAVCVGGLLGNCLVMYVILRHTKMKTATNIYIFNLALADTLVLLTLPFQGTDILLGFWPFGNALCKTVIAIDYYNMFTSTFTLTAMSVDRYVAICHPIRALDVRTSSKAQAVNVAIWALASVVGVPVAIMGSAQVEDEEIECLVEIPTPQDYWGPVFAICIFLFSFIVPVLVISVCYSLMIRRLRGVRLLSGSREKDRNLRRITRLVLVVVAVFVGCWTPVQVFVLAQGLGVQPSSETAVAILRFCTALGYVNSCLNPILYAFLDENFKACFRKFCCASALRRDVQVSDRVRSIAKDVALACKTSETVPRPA
UniProt P35372, whole entry, looked up: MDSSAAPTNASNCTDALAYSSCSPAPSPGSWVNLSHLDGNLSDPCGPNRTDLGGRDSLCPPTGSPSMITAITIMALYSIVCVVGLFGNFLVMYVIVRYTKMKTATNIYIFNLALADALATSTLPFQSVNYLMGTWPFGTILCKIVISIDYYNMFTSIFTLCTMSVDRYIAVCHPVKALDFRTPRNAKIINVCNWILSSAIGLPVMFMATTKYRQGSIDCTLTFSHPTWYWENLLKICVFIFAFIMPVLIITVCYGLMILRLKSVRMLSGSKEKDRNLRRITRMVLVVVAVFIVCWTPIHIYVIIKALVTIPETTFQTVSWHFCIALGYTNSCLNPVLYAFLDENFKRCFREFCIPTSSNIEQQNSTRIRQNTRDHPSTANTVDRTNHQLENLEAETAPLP

pKi: −log10 of the molar value.

In experiment [1] the target is human opioid receptor-like receptor (ORL-1) (Homo sapiens, UniProt P41146). To be noted: read-out: Nociceptin Affinity calc Ki; membranes from recombinant HEK-293 cells expressing human ORL-1.
The target in another experiment is Mu opioid receptor (Homo sapiens, UniProt P35372). As to the kind of experiment: Affinity at the μ receptor ([35S]GTPγS binding assay on membranes). Conditions: read-out: Mu Receptor Affinity calc Ki; Mu opioid receptor membrane.

Turning to `CCN1C(=O)N(C2CCN(C3CCC4CCCCC4C3)CC2)[C@@H]2CCCC[C@H]21` (relative stereo), the pKi (as a rule, −log10 of the Ki, conventionally taken in molar units) is 6.74 in experiment [1] and 6.55 on Mu opioid receptor.

As to `O=C1N[C@@H]2CCCC[C@H]2N1C1CCN(Cc2ccc3ccccc3c2)CC1` (relative stereo), the pKi is 5.90 in experiment [1] and 5.91 on Mu opioid receptor.

Take `CCN1C(=O)N(C2CCN(C3CCCCCCC3)CC2)[C@@H]2CCCC[C@H]21` (relative stereo): the pKi is 6.95 in experiment [1] and 6.04 at Mu opioid receptor.
